How the values were obtained:
[1] = tested on: PC3 cells (PSMA negative); test: Immunofluorescence microscopy of phage clone binding; type: cell-based, human; details: round 3 clones, 10^9 cfu, 37°C, 2 h, same input as for LNCaP
Description: (§1) The binding and cellular internalization study of phage clones and 5-FAM labeled peptides was performed as described previously. Briefly, LNCaP and PC-3 cells (1×10^4 cells/well) were grown on LabTek 8-chamber slides (Nunc Inc. Rochester, NY) overnight prior to the experiment. To determine the binding and internalization of phage clones, each clone (10^9 cfu) was incubated with LNCaP or PC-3 cells adherent in chamber slides (37°C, 2 h). After rinsing (PBS), the cells were fixed and permeabilized (4% paraformaldehyde, 0.01% Triton-X, 15 min) and blocked (5% BSA, TBS). To visualize the surface bound and internalized phage clones, the fixed and permeabilized cells were treated with either biotinylated rabbit anti-Fd bacteriophage antibody and Alexa 488 conjugated to streptavidin, or rabbit monoclonal anti-PSMA antibody (primary antibody) with TRITC labeled donkey anti-Rabbit IgG (secondary antibody). To inhibit the specific binding of the phage clones, the cells were pre-incubated with PSMA-His6 (100 nM, 2 hours, 37°C) before adding the phage clones. To quantify the fluorescence, the relative fluorescence unit (rfu) in the LNCap cells was measured with the software in Olympus FV1000 confocal scanning microscope.. Regions of interest were drawn in ten cells to determine the rfu values.

By UniProt entry, the sequences of proteins in these tests, tags left out. Residues count along the entry.
UniProt Q04609, 44-750 limits assumed: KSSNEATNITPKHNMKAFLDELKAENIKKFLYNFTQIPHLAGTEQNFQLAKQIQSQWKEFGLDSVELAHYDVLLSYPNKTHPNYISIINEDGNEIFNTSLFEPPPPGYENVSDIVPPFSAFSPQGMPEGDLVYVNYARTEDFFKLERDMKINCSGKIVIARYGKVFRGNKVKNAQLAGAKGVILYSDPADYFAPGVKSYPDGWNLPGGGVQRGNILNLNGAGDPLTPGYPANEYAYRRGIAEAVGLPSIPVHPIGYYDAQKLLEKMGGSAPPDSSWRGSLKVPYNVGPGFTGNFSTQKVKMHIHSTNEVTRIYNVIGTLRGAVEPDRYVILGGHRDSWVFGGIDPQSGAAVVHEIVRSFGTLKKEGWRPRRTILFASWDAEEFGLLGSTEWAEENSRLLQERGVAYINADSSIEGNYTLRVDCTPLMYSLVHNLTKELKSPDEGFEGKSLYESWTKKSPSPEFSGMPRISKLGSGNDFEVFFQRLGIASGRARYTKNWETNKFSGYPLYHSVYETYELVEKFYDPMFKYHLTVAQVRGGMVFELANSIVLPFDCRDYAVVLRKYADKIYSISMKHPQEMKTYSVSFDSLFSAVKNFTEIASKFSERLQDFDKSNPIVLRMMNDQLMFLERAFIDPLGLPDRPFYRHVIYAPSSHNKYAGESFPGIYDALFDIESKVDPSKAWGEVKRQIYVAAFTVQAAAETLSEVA

[2] = tested on: LNCaP cells (PSMA positive); test: as above; type: cell-based, human; details: 10^9 cfu; for Phage clone binding to LNCaP cells: round 3 clones, 37°C, 2 h; for Effect of soluble PSMA on phage clone binding to LNCaP cells: round 2 clones, 37°C 2 h, pre-incubation with PSMA-His6 100 nM, P<0.05
Description: as §1

[3] = Aqueous solubility as observed when handling the peptides; type: physicochemical; details: qualitative, aqueous buffers
[4] = tested on: LNCaP cells (PSMA positive); test: Binding and internalization of 5-FAM labeled peptides by confocal microscopy; type: cell-based, human; details: 1 µM 5-FAM labeled peptide, 1 h, 37°C
Description: To determine whether the discovered peptides from the third round of screening bound PSMA-positive LnCAP cells and co-internalized with PSMA, the 5-FAM labeled peptides (DMSO∶TBS 80∶20, v/v) were diluted in culture medium (1 µM) and incubated with adherent LNCaP cells in 8-well chamber slides (1 h, 37°C). After rinsing with PBS, the cells were fixed (4% paraformaldehyde, 15 min) and permeabilized (0.01% Triton-X, 15 min). Non-specific binding sites were blocked (5% BSA, TBS, 1 h), and then the cells were incubated with 1∶1000 rabbit monoclonal anti-PSMA antibody (primary antibody, 3% BSA, TBS, 1 h). After rinsing (PBS), the cells were incubated with 1∶1000 TRITC labeled donkey anti-Rabbit IgG (secondary antibody, 3% BSA, TBS, 1 h). After rinsing with PBS, the cells were mounted (50% glycerol, PBS), covered with coverslips, and sealed with nail polish. Confocal laser scanning microscopy (Olympus FV1000) was used to analyze all samples. We also used z-stack images to determine the extracellular and intracellular locations of the 5-FAM labeled peptides.

PSMA-His6 = PSMA-His6 (Homo sapiens, UniProt Q04609); test: PSMA enzyme assay (NAAG hydrolysis, Amplex Red glutamate detection); type: biochemical; set-up: A 15-mer library was screened against the soluble ectodomain of PSMA; purchased R&D Systems; details: Peptide 562 tetramer compared with peptide 562 monomer
Description: The glutamic acid/glutamate released from the natural substrate of PSMA, NAAG (N-acetylaspartylglutamate), was analyzed by the fluorescence-based Amplex Red Glutamic Acid/Glutamate Oxidase assay kit (Invitrogen) as previously described, [22], [32], [33]. […] Then NAAG (4 µM, 10 µL) was added to the peptide/PSMA-His6 mixture (37°C, 30 min). The enzymatic reaction was quenched (500 mM NaH2PO4/Na2HPO4, pH 7.4, 10 µL). […] Data was analyzed by non-linear regression with GraphPad Prism.

| Compound | Phage clone binding to PC3 cells [1] | Phage clone binding to LNCaP cells [2] | further results |
| --- | --- | --- | --- |
| LSFFSCWLRRSFSLT [Clone G, phage clone from round 3 of panning] | not PC3 cells | bound specifically to LNCaP cells | – |
| CC[C@H](C)[C@H](NC(=O)[C@H](CSCNC(C)=O)NC(=O)[C@H](CCCNC(=N)N)NC(=O)[C@H](CCSC)NC(=O)[C@H](CC(C)C)NC(=O)[C@H](Cc1ccccc1)NC(=O)[C@H](CC(C)C)NC(=O)[C@H](CC(C)C)NC(=O)[C@H](Cc1ccccc1)NC(=O)[C@H](CCSC)NC(=O)[C@H](CCCNC(=N)N)NC(=O)[C@H](C)N)C(=O)NCC(=O)N[C@@H](CSCNC(C)=O)C(=O)N[C@@H](Cc1ccc(O)cc1)C(N)=O [Peptide 565] | – | – | Aqueous solubility [3]: relatively insoluble in aqueous buffers |
| 5FAM-562: peptide 562 conjugated with 5-carboxyl fluorescein on the N-terminal amine (SHSFSVGSGDHSPFT; 5-carboxyfluorescein (5-FAM) on the N-terminal amine) [Peptide 5FAM-562] | – | – | Binding and internalization in LNCaP cells ([4]; confocal microscopy): bound and internalized in LNCaP cells; Co-localization with PSMA ([4]; PSMA visualized with anti-PSMA-Mab): co-localized with PSMA in intracellular vesicles |
| EVPRLSLLAVFLCNG [Clone J, phage clone from round 3 of panning] | not PC3 cells | bound specifically to LNCaP cells | – |
| SHSFSVGSGSGDHSP [Clone E] | not PC3 cells | bound specifically to LNCaP cells | – |
| CC(C)[C@H](NC(=O)[C@H](CO)NC(=O)[C@H](Cc1ccccc1)NC(=O)[C@H](CO)NC(=O)[C@H](Cc1c[nH]cn1)NC(=O)[C@@H](N)CO)C(=O)NCC(=O)N[C@@H](CO)C(=O)NCC(=O)N[C@@H](CC(=O)O)C(=O)N[C@@H](Cc1c[nH]cn1)C(=O)N[C@@H](CO)C(=O)N1CCC[C@H]1C(=O)N[C@@H](Cc1ccccc1)C(=O)N[C@H](C(=O)NCC(=O)NCC(=O)NCC(=O)N[C@@H](CO)C(=O)NCCOCCOCCOCCOCCOCCOCCC(=O)N[C@@H](CSC1CC(=O)N(CCC(=O)NCCCC[C@H](NC(=O)CCN2C(=O)CC(SC[C@H](NC(=O)CCOCCOCCOCCOCCOCCOCCNC(=O)[C@H](CO)NC(=O)CNC(=O)CNC(=O)CNC(=O)[C@@H](NC(=O)[C@H](Cc3ccccc3)NC(=O)[C@@H]3CCCN3C(=O)[C@H](CO)NC(=O)[C@H](Cc3c[nH]cn3)NC(=O)[C@H](CC(=O)O)NC(=O)CNC(=O)[C@H](CO)NC(=O)CNC(=O)[C@@H](NC(=O)[C@H](CO)NC(=O)[C@H](Cc3ccccc3)NC(=O)[C@H](CO)NC(=O)[C@H](Cc3c[nH]cn3)NC(=O)[C@@H](N)CO)C(C)C)[C@@H](C)O)C(N)=O)C2=O)C(=O)NCCCC[C@H](NC(=O)[C@H](CCCCNC(=O)CCN2C(=O)CC(SC[C@H](NC(=O)CCOCCOCCOCCOCCOCCOCCNC(=O)[C@H](CO)NC(=O)CNC(=O)CNC(=O)CNC(=O)[C@@H](NC(=O)[C@H](Cc3ccccc3)NC(=O)[C@@H]3CCCN3C(=O)[C@H](CO)NC(=O)[C@H](Cc3c[nH]cn3)NC(=O)[C@H](CC(=O)O)NC(=O)CNC(=O)[C@H](CO)NC(=O)CNC(=O)[C@@H](NC(=O)[C@H](CO)NC(=O)[C@H](Cc3ccccc3)NC(=O)[C@H](CO)NC(=O)[C@H](Cc3c[nH]cn3)NC(=O)[C@@H](N)CO)C(C)C)[C@@H](C)O)C(N)=O)C2=O)NC(=O)CCN2C(=O)CC(SC[C@H](NC(=O)CCOCCOCCOCCOCCOCCOCCNC(=O)[C@H](CO)NC(=O)CNC(=O)CNC(=O)CNC(=O)[C@@H](NC(=O)[C@H](Cc3ccccc3)NC(=O)[C@@H]3CCCN3C(=O)[C@H](CO)NC(=O)[C@H](Cc3c[nH]cn3)NC(=O)[C@H](CC(=O)O)NC(=O)CNC(=O)[C@H](CO)NC(=O)CNC(=O)[C@@H](NC(=O)[C@H](CO)NC(=O)[C@H](Cc3ccccc3)NC(=O)[C@H](CO)NC(=O)[C@H](Cc3c[nH]cn3)NC(=O)[C@@H](N)CO)C(C)C)[C@@H](C)O)C(N)=O)C2=O)C(=O)NCCC(=O)O)C1=O)C(N)=O)[C@@H](C)O (stereo partly shown) [(562)4] | – | – | Improvement of enzyme inhibition IC50 of tetramer over monomer (PSMA-His6): 2 fold |
| SHSFSVGSG DHSPFT [Clone H] | not PC3 cells | bound specifically to LNCaP cells | – |
| CC(=O)NCSC[C@H](NC(=O)[C@H](CO)NC(=O)[C@H](Cc1ccccc1)NC(=O)[C@H](Cc1ccccc1)NC(=O)[C@H](CO)NC(=O)[C@@H](N)CC(C)C)C(=O)N[C@@H](Cc1c[nH]c2ccccc12)C(=O)N[C@@H](CC(C)C)C(=O)N[C@@H](CCCNC(=N)N)C(=O)N[C@@H](CCCNC(=N)N)C(=O)N[C@@H](CO)C(=O)N[C@@H](Cc1ccccc1)C(=O)N[C@@H](CO)C(=O)N[C@@H](CC(C)C)C(=O)N[C@H](C(N)=O)[C@@H](C)O [Peptide 564] | – | – | Aqueous solubility [3]: limited water solubility |
| ARLSHRPSYLLVCA [Clone 1, phage clone from round 2 of panning displaying […]] | – | – | Effect of soluble PSMA on phage clone binding to LNCaP cells [2]: inhibited the binding |
| ARMFLLFLMRCIGCY [Clone C, phage clone from round 3 of panning] | not PC3 cells | bound specifically to LNCaP cells | – |
| EVPRLSLLAVFLVAN [Clone L] | not PC3 cells | bound specifically to LNCaP cells | – |
| GTAVASRVYSLHSLM [Clone 2, phage clone from round 2 of panning displaying […]] | – | – | Effect of soluble PSMA on phage clone binding to LNCaP cells [2]: inhibited the binding |

Reference: paper PMC3723849, “Evaluation of Phage Display Discovered Peptides as Ligands for Prostate-Specific Membrane Antigen (PSMA)” (PLoS ONE, 2013)
